The results in this text go back to article PMC8406319, “The dCache Chemoreceptor TlpA of Helicobacter pylori Binds Multiple Attractant and Antagonistic Ligands via Distinct Sites” (mBio, 2021).

Experiment in all cases: biochemical
The target of test [1] is T1, TlpAD165A (Helicobacter pylori, UniProt O24925, D165A).
T1 sequence (O24925 28-299 D165A): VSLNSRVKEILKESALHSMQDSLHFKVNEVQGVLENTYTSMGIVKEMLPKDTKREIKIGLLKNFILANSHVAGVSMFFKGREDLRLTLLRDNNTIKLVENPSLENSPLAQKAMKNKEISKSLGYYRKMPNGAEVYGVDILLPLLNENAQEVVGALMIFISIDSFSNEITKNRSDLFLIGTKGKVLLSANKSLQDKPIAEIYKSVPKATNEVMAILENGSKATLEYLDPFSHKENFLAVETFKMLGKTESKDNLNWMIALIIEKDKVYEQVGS
The text has this: (§1) The periplasmic portion of TlpA (TlpALBD), amino acids 28 to 299, from Helicobacter pylori SS1 was cloned into a pBH4 expression vector (pBH4_TlpALBD) to generate an N-terminal 6×His-tagged construct, with a tobacco etch virus (TEV) protease site, under the control of isopropyl-β-D-thiogalactopyranoside (IPTG) ([19]). […] TlpALBD and all point mutants were purified as described previously by Sweeney et al. ([19]).
(§2) Purified TlpALBD was immobilized on a CM5 series S sensor chip, and binding affinities were tested using a Biacore S200 instrument (GE Healthcare) as described previously ([39], [57], [59]). Briefly, proteins were captured using an amine-coupling kit (GE Healthcare), in which the carboxylmethyl dextran matrix of the sensor chip was activated by the injection of a mixture of 0.2 M 1-ethyl-3-[(3-dimethylamino)propyl]-carbodiimide (EDC) and 0.05 M N-hydroxysuccinimide (NHS), followed by the neutralization of the remaining unreacted NHS ester groups by the injection of 1 M ethanolamine-HCl (pH 8.0). Purified TlpALBD was diluted in 10 mM sodium acetate buffer (pH 4.5) at a concentration of 100 μg/ml for immobilization to the chip. A total of 8,400 response units (RU) of TlpALBD were captured on flow cell 2. As a negative control, flow cell 1 was a blank control undergoing the same treatment as the other flow paths, without the protein injection. This set enabled double-reference subtraction of the responses (2 − 1, 3 − 1, and 4 − 1). The tested compounds were prepared as a stock concentration of 100 to 200 mM in PBS. The compounds were then diluted between 1 nM and 1 mM in a series of 1:10 dilutions in PBS and run over the flow cells at a flow rate of 30 μl/min. Between each sample testing, a series of buffer-only injections was run to enable double-blank subtraction for the sensorgram assessment. […] The data sets were analyzed using Biacore S200 evaluation software 2.0.2; sensorgrams were double-reference subtracted.

Test [2] addresses T2, TlpAD254A (Helicobacter pylori, UniProt O24925, D254A).
T2 sequence (O24925 28-299 D254A): T1 sequence (O24925 28-299 D165A)
Excerpt: as §1, §2

The target of test [3] is T3, TlpALBD (TlpAWT) (Helicobacter pylori, UniProt O24925).
T3 sequence (O24925 28-299): T1 sequence (O24925 28-299 D165A)
As to conditions: SPR.
Excerpt: as §1, §2
In general terms: Surface plasmon resonance follows binding to a sensor surface in real time, without labels.

The target in test [4] is T4, TlpAM183A (Helicobacter pylori, UniProt O24925, M183A).
T4 sequence (O24925 28-299 M183A): T1 sequence (O24925 28-299 D165A)
Excerpt: as §1, §2

The target of test [5] is T5, TlpAY228A (Helicobacter pylori, UniProt O24925, Y228A).
T5 sequence (O24925 28-299 Y228A): T1 sequence (O24925 28-299 D165A)
Excerpt: as §1, §2

Test [6] concerns the target T6, TlpAY252A (Helicobacter pylori, UniProt O24925, Y252A).
T6 sequence (O24925 28-299 Y252A): T1 sequence (O24925 28-299 D165A)
Excerpt: as §1, §2

Each structure is given as a SMILES string.

For the molecule `O=C(O)CCC(=O)C(=O)O` [α-Ketoglutarate, α-ketoglutaric acid], the Kd – broadly, a measure of binding affinity in units of concentration – in test [1] was 124 ± 7.1 µM; in test [2], 321 ± 21.6 µM; in test [3] (Mean binding affinity ± SD, Table 1, n = 3), 224 ± 11.2 µM; in test [3] (dissociation constant [Kd], WT TlpALBD), over 45 µM; in test [4] it was 256 ± 27.6 µM; in test [5], 295 ± 27.7 µM. In addition, the Kd in test [6] turned out to be 289 ± 22.6 µM.
